Binding of CDR-mutated scFvs to a peptide of the spike HR2 region

Target peptide (SARS-CoV-2 spike, HR2 region): PDVDLGDISGINAS

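Designed CDR sequences, proposed from the first random library and measured here. Several design methods are mixed in this list. Affinity was read by AlphaSeq, a pooled yeast mating assay with surface-displayed partners. Mating (16 h, 30 °C) was followed by selection of diploids and sequencing of their barcodes. A regression on co-assayed BCL2-family reference pairs converts the normalised counts of each replicate to an apparent Kd. There are six technical replicates.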

The variants keep the heavy chain, the linker and the frameworks of Ab-14 (scFv order VH, a (GGGGS)3 linker, VL).
VH: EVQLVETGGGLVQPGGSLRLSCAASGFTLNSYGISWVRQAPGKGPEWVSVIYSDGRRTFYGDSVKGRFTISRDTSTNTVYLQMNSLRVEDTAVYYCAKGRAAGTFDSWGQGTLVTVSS
VL: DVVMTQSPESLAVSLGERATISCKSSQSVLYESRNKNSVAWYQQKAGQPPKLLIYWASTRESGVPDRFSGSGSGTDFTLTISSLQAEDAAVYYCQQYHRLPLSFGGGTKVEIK

The parent's light chain CDRs are KSSQSVLYESRNKNSVA, WASTRES, QQYHRLPLS; each variant's own CDRs replace them letter for letter. Variants here have at most six changes. The Kd shown is the geometric mean over detected replicates; a lower Kd is a better binder. Where no diploid with the target was found in any replicate, the entry reads "nd": below detection, most likely a poor binder, though not proof of it. The range of this assay differs from that of the first round, and the authors advise against merging the two.

The variant KLPQSVLYESRNKNSVA / HASTRES / QQYHRLPLS gave 790 pM (6 of 6 replicates). For KSSISYLYESPNKNSVA / EASTRMS / QQYHRLPLS, the assay gave 6.0 nM (6 of 6 replicates). The variant KSSQSVLYESDNKNSVA / EASTRED / QQYHRLVLS gave 6.3 nM (6 of 6 replicates). For KSSQSPLYESRNENSVA / YGSTREM / QQYHRLPLS, the assay gave 15 nM (5 of 6 replicates). The variant KLSQSVLYESRNKNSVA / SASQRES / QQYHRLPLS gave nd (0 of 6 replicates). With KSSQSVLQESRNKNSVA / WASTRES / QQYHVLPLQ the result was 34 nM (1 of 6 replicates).

The variant KSSISYLYESENKMSVA / EASQRES / QQYHRLPLS showed 31 nM (1 of 6 replicates). For KSSQSVSYESQNKNSVA / WASTRES / QQYHRLPLS, the assay gave 360 nM (6 of 6 replicates). The variant KLSQMQLYESRNKNSVA / NASTRES / QQYHRLPLS showed 200 pM (6 of 6 replicates). The variant KFSQSVMYESRTKNSVA / NASTRES / QQYHRLPLS showed 360 pM (6 of 6 replicates). The variant KSSQSVLYESRNKNIVA / WASHRES / QFYHRLPLS showed nd (0 of 6 replicates). For KLYQSHLYESRNKNSVA / NASTRCS / QQYHRLPLS, the assay gave 1.5 nM (6 of 6 replicates).

The variant KISISVLYESRNKNSVA / WASTRES / QQYHRLPLS gave nd (0 of 6 replicates). For KSTQSVLYESRNKNSVA / EASTRES / QQYHRLPLS, the assay gave 1.5 nM (6 of 6 replicates). For KSPQSNLYDSANKNSVA / WASTRES / QQYHRLPLS, the assay gave 9.8 nM (6 of 6 replicates). The variant KSSQSVLYESRFTNSVA / WASTRES / QQYHRLPLS showed nd (0 of 6 replicates). With KVSSSFLYEDRNKNSVA / QASQRES / QQYHRLPLS the result was 950 pM (6 of 6 replicates). For KFSQSVWDESRNKNSVA / WASTRES / QQYHRLPLS, the assay gave 21 nM (6 of 6 replicates).

The variant KVIQSVLYESRNKNSVA / WASTRTS / QQYHRLPLS showed 150 nM (3 of 6 replicates). The variant KLSQSMLYESRNKNSVA / EASQRES / QQYHRLPLS showed 270 pM (6 of 6 replicates). The variant KVSMQQLYSSRNKNSVA / DASTRES / QQYHRLPLS gave 490 pM (6 of 6 replicates). With KFSQSVLYESRTSNGVA / NASTRES / QQYHRLPLS the result was 1.3 nM (6 of 6 replicates). The variant KSSQSVLYESHNKNSVA / NASTRMS / QQYHRLPLS gave 4.3 nM (6 of 6 replicates). The variant KVSQSVLYEDRNKNSVA / EASQRES / QQYHRLPLS showed 7.6 nM (6 of 6 replicates).

The variant KVSQSVLYESRNKQSVA / NASTRES / QQYHRLPLS showed 420 pM (6 of 6 replicates). The variant KSSQSVFYESRRKNPVA / KASTRES / QQYHRLPLS showed 27 nM (1 of 6 replicates). For KSSISYLGEQRNKNSVA / EASTRES / QQYHRLPLS, the assay gave 900 pM (6 of 6 replicates). The variant KAYQSWLYESRNKNSVA / GASTRES / QQYHRLPLI showed 3.2 nM (6 of 6 replicates). With KSSWSYLYESRNTNSVA / EASTRES / QQYHRLPLS the result was 1.7 nM (6 of 6 replicates). The variant KSSQSVLYESRNLNSVA / WGSTRES / QQYHRLPLS showed 15 nM (1 of 6 replicates).

For KLPQSTLYESRNKNSVA / WASTRES / QQYHRLPLS, the assay gave 30 nM (6 of 6 replicates). The variant KFSQWVLYESRMKNSVA / NASTRES / QQYHRLPLS showed 7.4 nM (6 of 6 replicates). For KSSSSVLYEDENKNSVA / NASTRES / QQYHRLPLS, the assay gave 8.1 nM (6 of 6 replicates). With KSSQSVDYETRNFNSVA / WASTRWD / QQYHRLPLS the result was 320 nM (6 of 6 replicates). For KASQSVLYESRNKNSVA / AASTRES / QCPHRLPLS, the assay gave nd (0 of 6 replicates). The variant KLSQSVLYESRNKNSVA / HASTRYS / QQYHRLPLS showed 1.9 nM (6 of 6 replicates).

For KLQQSWLYESRNKNSVA / GASTRLS / QQYHRLPLS, the assay gave 2.1 nM (6 of 6 replicates). The variant KSSISYLYESMNKNSVA / SGSTRES / QQYHRLPLS showed 2.6 nM (6 of 6 replicates). The variant KSSQSHLYESRNKNSVA / SASTRES / QQYHRLPLS showed 20 nM (6 of 6 replicates). With KSLQSVLYESRNKNSVA / HASTRED / QQNHRLPLS the result was nd (0 of 6 replicates). The variant KTWQGVLYESRNKNSVA / GASLRES / QQYHRLPLS gave 1.2 nM (6 of 6 replicates).

Picked from the list: the 6 lowest averages where every replicate gave a value.

CDR-L1	CDR-L2	CDR-L3	Kd	replicates with signal
KLSQMQLYESRNKNSVA	NASTRES	QQYHRLPLS	200 pM	6 of 6
KLSQSMLYESRNKNSVA	EASQRES	QQYHRLPLS	270 pM	6 of 6
KFSQSVMYESRTKNSVA	NASTRES	QQYHRLPLS	360 pM	6 of 6
KVSQSVLYESRNKQSVA	NASTRES	QQYHRLPLS	420 pM	6 of 6
KVSMQQLYSSRNKNSVA	DASTRES	QQYHRLPLS	490 pM	6 of 6
KLPQSVLYESRNKNSVA	HASTRES	QQYHRLPLS	790 pM	6 of 6

Three control strains display no target. For all light chain designs, 4% of the pairings with them gave a signal, with a median of 430 nM and one signal in twenty below 38 nM, so weak values seen in few replicates may be background. The authors' rule: three or more of the six replicates give a measured affinity, fewer mean a poor binder.

From the AlphaSeq antibody data of Li et al. 2023 (doi:10.1038/s41467-023-39022-2), copy in the FLAb collection.